For one compound, Ki results are on record in patent publication US10961232B2.

By UniProt entry, the sequences of proteins in these tests, tags left out.
UniProt Q13535, whole entry: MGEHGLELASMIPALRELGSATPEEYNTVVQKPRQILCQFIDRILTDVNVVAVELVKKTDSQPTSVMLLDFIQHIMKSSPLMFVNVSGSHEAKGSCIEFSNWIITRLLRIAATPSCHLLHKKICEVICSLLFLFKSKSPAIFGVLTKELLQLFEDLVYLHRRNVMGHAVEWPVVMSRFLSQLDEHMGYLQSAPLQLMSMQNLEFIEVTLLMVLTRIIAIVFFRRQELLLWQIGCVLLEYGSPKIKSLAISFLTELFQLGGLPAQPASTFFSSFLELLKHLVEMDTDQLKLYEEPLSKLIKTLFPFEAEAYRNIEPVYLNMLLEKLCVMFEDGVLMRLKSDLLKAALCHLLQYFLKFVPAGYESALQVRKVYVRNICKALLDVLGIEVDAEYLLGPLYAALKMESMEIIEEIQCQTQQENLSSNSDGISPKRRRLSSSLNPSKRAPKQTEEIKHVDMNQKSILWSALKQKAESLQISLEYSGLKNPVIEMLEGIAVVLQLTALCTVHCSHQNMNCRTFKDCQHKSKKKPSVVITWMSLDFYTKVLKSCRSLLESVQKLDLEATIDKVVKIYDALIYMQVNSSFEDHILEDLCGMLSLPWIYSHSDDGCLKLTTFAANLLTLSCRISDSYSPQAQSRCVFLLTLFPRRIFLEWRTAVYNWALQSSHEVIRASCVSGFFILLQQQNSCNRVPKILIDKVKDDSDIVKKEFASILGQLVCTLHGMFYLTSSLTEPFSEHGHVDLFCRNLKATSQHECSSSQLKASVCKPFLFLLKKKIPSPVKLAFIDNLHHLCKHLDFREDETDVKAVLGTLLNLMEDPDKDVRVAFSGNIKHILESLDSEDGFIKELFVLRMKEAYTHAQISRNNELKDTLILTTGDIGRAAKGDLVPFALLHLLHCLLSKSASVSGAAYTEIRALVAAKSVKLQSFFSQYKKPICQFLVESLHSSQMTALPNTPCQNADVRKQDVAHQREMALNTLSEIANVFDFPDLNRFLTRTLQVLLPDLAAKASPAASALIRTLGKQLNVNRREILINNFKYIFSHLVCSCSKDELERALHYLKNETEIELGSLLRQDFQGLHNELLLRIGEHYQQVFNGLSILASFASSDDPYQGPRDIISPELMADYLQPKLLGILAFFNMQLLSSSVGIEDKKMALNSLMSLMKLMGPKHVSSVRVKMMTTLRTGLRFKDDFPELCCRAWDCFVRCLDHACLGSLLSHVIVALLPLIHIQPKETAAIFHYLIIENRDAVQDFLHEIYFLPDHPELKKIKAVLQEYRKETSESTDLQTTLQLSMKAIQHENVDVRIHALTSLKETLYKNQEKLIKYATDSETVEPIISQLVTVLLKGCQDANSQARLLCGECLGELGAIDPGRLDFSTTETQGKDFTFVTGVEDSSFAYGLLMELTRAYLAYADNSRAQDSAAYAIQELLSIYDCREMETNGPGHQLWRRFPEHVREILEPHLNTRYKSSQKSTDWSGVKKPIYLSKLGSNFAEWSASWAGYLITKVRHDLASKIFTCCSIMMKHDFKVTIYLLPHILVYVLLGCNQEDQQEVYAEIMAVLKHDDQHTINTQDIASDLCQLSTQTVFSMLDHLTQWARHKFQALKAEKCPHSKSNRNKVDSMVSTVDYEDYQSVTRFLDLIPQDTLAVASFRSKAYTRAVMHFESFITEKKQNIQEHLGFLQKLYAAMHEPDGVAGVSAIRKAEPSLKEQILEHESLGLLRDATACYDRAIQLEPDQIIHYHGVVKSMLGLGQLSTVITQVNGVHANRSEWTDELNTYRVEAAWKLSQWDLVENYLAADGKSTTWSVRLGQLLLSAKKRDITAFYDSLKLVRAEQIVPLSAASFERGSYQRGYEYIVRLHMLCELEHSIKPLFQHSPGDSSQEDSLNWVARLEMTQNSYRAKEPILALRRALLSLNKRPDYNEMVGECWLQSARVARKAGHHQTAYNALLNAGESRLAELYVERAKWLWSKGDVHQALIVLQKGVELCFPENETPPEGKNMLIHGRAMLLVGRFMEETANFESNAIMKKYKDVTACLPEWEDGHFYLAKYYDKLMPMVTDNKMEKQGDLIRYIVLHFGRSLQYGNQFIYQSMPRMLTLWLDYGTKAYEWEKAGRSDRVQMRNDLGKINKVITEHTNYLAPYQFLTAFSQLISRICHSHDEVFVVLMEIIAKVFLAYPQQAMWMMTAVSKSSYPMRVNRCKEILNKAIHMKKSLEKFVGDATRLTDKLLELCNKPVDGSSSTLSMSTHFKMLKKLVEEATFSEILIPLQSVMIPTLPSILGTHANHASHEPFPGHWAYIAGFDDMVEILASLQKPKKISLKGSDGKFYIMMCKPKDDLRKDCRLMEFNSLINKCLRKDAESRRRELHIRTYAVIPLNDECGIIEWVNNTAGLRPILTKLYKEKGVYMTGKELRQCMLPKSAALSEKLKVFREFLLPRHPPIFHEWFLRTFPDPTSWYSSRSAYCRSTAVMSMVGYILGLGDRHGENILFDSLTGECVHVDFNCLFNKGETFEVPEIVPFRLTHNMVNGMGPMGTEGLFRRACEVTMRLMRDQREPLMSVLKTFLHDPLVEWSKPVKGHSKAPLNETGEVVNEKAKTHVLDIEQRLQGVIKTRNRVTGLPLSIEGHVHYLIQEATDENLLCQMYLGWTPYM

The assay addresses full-length ATR (Homo sapiens (Human), UniProt Q13535). Briefly: ATR inhibition assay (radioactive-phosphate incorporation). It is filed as biochemical. The note with it: read-out: ATR Ki; ATR Inhibition Ki values; 5 nM full-length ATR, 10 μM ATP.

In the case of `Cc1cccc2nc(-c3nc(-c4ccc(C(=O)N5CC[C@@H](N(C)C)C5)cc4)cnc3N)[nH]c12`, the Ki fell in the range of 10 to 100 nM.
